The nature of assay [1]: Selectivity ratio of IC50 for inhibition of porcine heart MDH to IC50 for inhibition of recombinant human LDHB.
Assay [2] can be described thus: Selectivity ratio of IC50 for inhibition of porcine heart MDH to IC50 for inhibition of recombinant human LDHA.

The structures appear in SMILES notation.

For `Cc1cc(C#Cc2cccc(-c3nn(-c4nc(C(=O)O)cs4)c(CC4CC4)c3Cc3ccc(S(N)(=O)=O)c(F)c3)c2)cs1`, the Ratio IC50 in assay [1] and in assay [2] was more than 2500 each time.
As to `NS(=O)(=O)c1ccc(Cc2c(-c3cccc(C#Cc4ccc(C5CC5)s4)c3)nn(-c3nc(C(=O)O)cs3)c2CC2CC2)cc1F`, the Ratio IC50 in assay [1] and in assay [2] was more than 2500 each time.
In the case of `CC(C)(C)C#Cc1cc(-c2nn(-c3nc(C(=O)O)cs3)c(CC3CC3)c2Cc2ccc(S(N)(=O)=O)c(F)c2)ccc1F`, the Ratio IC50 in assay [1] and in assay [2] was more than 2500 in each case.
`NS(=O)(=O)c1ccc(Cc2c(-c3ccc(F)c(C#CCC4CCCO4)c3)nn(-c3nc(C(=O)O)cs3)c2CC2CC2)cc1F` (configuration not stated): the Ratio IC50 in assay [1] and in assay [2] was more than 2500 throughout.
As to `NS(=O)(=O)c1ccc(Cc2c(-c3cccc(-c4ccccc4)c3)nn(-c3nc(C(=O)O)cs3)c2CC2CC2(F)F)cc1` (configuration not stated), the Ratio IC50 in assay [1] and in assay [2] was more than 2500 in each case.
Consider `Cc1ncc(C#Cc2cccc(-c3nn(-c4nc(C(=O)O)cs4)c(CC4CC4)c3Cc3ccc(S(N)(=O)=O)c(F)c3)c2)s1`, for which the Ratio IC50 in assay [1] and in assay [2] was more than 2500 in each case.
With `Cc1ccc(/C=C/c2cccc(-c3nn(-c4nc(C(=O)O)cs4)c(CC4CC4)c3Cc3ccc(S(N)(=O)=O)c(F)c3)c2)s1`, the Ratio IC50 in assay [1] and in assay [2] was more than 2500 in each case.
Turning to `Cc1ccc(C#Cc2cccc(-c3nn(-c4nc(C(=O)O)cs4)c(CC4CC4)c3Cc3ccc(S(N)(=O)=O)c(F)c3)c2)o1`, the Ratio IC50 in assay [1] and in assay [2] was more than 2500 each time.
For the compound `Cc1cnc(C#Cc2cccc(-c3nn(-c4nc(C(=O)O)cs4)c(CC4CC4)c3Cc3ccc(S(N)(=O)=O)c(F)c3)c2)s1`, the Ratio IC50 in assay [1] and in assay [2] was more than 2500 in each case.
Regarding `NS(=O)(=O)c1ccc(Cc2c(-c3ccc(F)c(/C=C/C4CCCC4)c3)nn(-c3nc(C(=O)O)cs3)c2CC2CC2)cc1F`, the Ratio IC50 in assay [1] and in assay [2] was more than 2500 each time.
Turning to `NS(=O)(=O)c1ccc(Cc2c(-c3ccc(F)c(C#CC(F)F)c3)nn(-c3nc(C(=O)O)cs3)c2CC2CC2)cc1F`, the Ratio IC50 in assay [1] and in assay [2] was more than 2500 each time.
For the compound `Cc1ccc(C#Cc2cc(-c3nn(-c4nc(C(=O)O)cs4)c(CC4CC4)c3Cc3ccc(S(N)(=O)=O)c(F)c3)ccc2F)s1`, the Ratio IC50 in assay [1] and in assay [2] was more than 2500 in each case.
Turning to `CCCCC#Cc1cc(-c2nn(-c3nc(C(=O)O)cs3)c(CC3CC3)c2Cc2ccc(S(N)(=O)=O)c(F)c2)ccc1F`, the Ratio IC50 in assay [1] and in assay [2] was more than 2500 in each case.
Consider `CC#Cc1cccc(-c2nn(-c3nc(C(=O)O)cs3)c(CC3CC3)c2Cc2ccc(S(N)(=O)=O)c(F)c2)c1`, for which the Ratio IC50 in assay [1] and in assay [2] was more than 2500 each time.
`NS(=O)(=O)c1ccc(Cc2c(-c3ccc(F)c(C#Cc4cccs4)c3)nn(-c3nc(C(=O)O)cs3)c2CC2CC2)cc1F`: the Ratio IC50 in assay [1] and in assay [2] was more than 2500 throughout.
Regarding `Cn1cc(C#Cc2cc(-c3nn(-c4nc(C(=O)O)cs4)c(CC4CC4)c3Cc3ccc(S(N)(=O)=O)c(F)c3)ccc2F)cn1`, the Ratio IC50 in assay [1] and in assay [2] was more than 2500 each time.
Take `Cc1ncc(C#Cc2cccc(-c3nn(-c4nc(C(=O)O)cs4)c(CCC4CC4)c3Cc3ccc(S(N)(=O)=O)c(F)c3)c2)s1`: the Ratio IC50 in assay [1] and in assay [2] was more than 2500 each time.
As to `CC(C)c1ccc(C#Cc2cccc(-c3nn(-c4nc(C(=O)O)cs4)c(CC4CC4)c3Cc3ccc(S(N)(=O)=O)c(F)c3)c2)s1`, the Ratio IC50 in assay [1] and in assay [2] was more than 2500 in each case.
Take `NS(=O)(=O)c1ccc(Cc2c(-c3cccc(C#Cc4ccc(Cl)s4)c3)nn(-c3nc(C(=O)O)cs3)c2CC2CC2)cc1F`: the Ratio IC50 in assay [1] and in assay [2] was more than 2500 throughout.
For the compound `NS(=O)(=O)c1ccc(Cc2c(-c3cccc(C#CC4CCCC4)c3)nn(-c3nc(C(=O)O)cs3)c2CC2CC2)cc1F`, the Ratio IC50 in assay [1] and in assay [2] was more than 2500 in each case.
On to `NS(=O)(=O)c1ccc(Cc2c(-c3ccc(F)c(C#CC4CCCC4)c3)nn(-c3nc(C(=O)O)cs3)c2CC2CC2)cc1F`, for which the Ratio IC50 in assay [1] and in assay [2] was more than 2500 each time.
As to `NS(=O)(=O)c1ccc(Cc2c(-c3cccc(-c4ccccc4)c3)nn(-c3nc(C(=O)O)cs3)c2CC2CC2)cc1F`, the Ratio IC50 in assay [1] and in assay [2] was more than 2500 in each case.
With `Cc1cc(C)c(C#Cc2cccc(-c3nn(-c4nc(C(=O)O)cs4)c(CC4CC4)c3Cc3ccc(S(N)(=O)=O)c(F)c3)c2)s1`, the Ratio IC50 in assay [1] and in assay [2] was more than 2500 in each case.
For the compound `Cc1ccc(C#Cc2cc(-c3nn(-c4nc(C(=O)O)cs4)c(CC4CC4)c3Cc3ccc(S(N)(=O)=O)c(F)c3)ccc2F)o1`, the Ratio IC50 in assay [1] and in assay [2] was more than 2500 each time.
Turning to `NS(=O)(=O)c1ccc(Cc2c(-c3ccc(F)c(C#CC4CCOC4)c3)nn(-c3nc(C(=O)O)cs3)c2CC2CC2)cc1F` (configuration not stated), the Ratio IC50 in assay [1] and in assay [2] was more than 2500 in each case.
As for `Cc1nc(C#Cc2cccc(-c3nn(-c4nc(C(=O)O)cs4)c(CCC4CC4)c3Cc3ccc(S(N)(=O)=O)c(F)c3)c2)cs1`, the Ratio IC50 in assay [1] and in assay [2] was more than 2500 in each case.
Consider `NS(=O)(=O)c1ccc(Cc2c(-c3cccc(C#Cc4ccc(C5CC5)s4)c3)nn(-c3nc(C(=O)O)cs3)c2CCC2CC2)cc1F`, for which the Ratio IC50 in assay [1] and in assay [2] was more than 2500 each time.
`Cc1cc(C#Cc2cccc(-c3nn(-c4nc(C(=O)O)cs4)c(CCC4CC4)c3Cc3ccc(S(N)(=O)=O)c(F)c3)c2)c(C)s1`: the Ratio IC50 in assay [1] and in assay [2] was more than 2500 throughout.
For `NS(=O)(=O)c1ccc(Cc2c(-c3ccc(F)c(C#CC4CCNCC4)c3)nn(-c3nc(C(=O)O)cs3)c2CC2CC2)cc1F`, the Ratio IC50 in assay [1] and in assay [2] was more than 2500 each time.
As to `NS(=O)(=O)c1ccc(Cc2c(-c3ccc(F)c(-c4ccccc4)c3)nn(-c3nc(C(=O)O)cs3)c2CC2CC2)cc1`, the Ratio IC50 in assay [1] and in assay [2] was more than 2500 each time.
As to `CCCC#Cc1cc(-c2nn(-c3nc(C(=O)O)cs3)c(CC3CC3)c2Cc2ccc(S(N)(=O)=O)c(F)c2)ccc1F`, the Ratio IC50 in assay [1] and in assay [2] was more than 2500 throughout.
For the compound `Cc1cnc(C#Cc2cccc(-c3nn(-c4nc(C(=O)O)cs4)c(CCC4CC4)c3Cc3ccc(S(N)(=O)=O)c(F)c3)c2)s1`, the Ratio IC50 in assay [1] and in assay [2] was more than 2500 throughout.
Turning to `NS(=O)(=O)c1ccc(Cc2c(-c3ccc(F)c(-c4ccccc4)c3)nn(-c3nc(C(=O)O)cs3)c2CC2CC2)cc1F`, the Ratio IC50 in assay [1] and in assay [2] was more than 2500 throughout.
On to `NS(=O)(=O)c1ccc(Cc2c(-c3cccc(-c4ccccc4)c3)nn(-c3nc(C(=O)O)cs3)c2C2CC2(F)F)cc1` (configuration not stated), for which the Ratio IC50 in assay [1] and in assay [2] was more than 2500 each time.
`NS(=O)(=O)c1ccc(Cc2c(-c3ccc(F)c(C#CC(F)(F)F)c3)nn(-c3nc(C(=O)O)cs3)c2CC2CC2)cc1F`: the Ratio IC50 in assay [1] and in assay [2] was more than 2500 each time.
As for `Cc1nc(C#Cc2cccc(-c3nn(-c4nc(C(=O)O)cs4)c(CC4CC4)c3Cc3ccc(S(N)(=O)=O)c(F)c3)c2)cs1`, the Ratio IC50 in assay [1] and in assay [2] was more than 2500 in each case.
For the compound `Cc1cnc(C#Cc2cccc(-c3nn(-c4nc(C(=O)O)cs4)c(CC4CC4)c3Cc3ccc(S(N)(=O)=O)c(F)c3)c2)o1`, the Ratio IC50 in assay [1] and in assay [2] was more than 2500 in each case.
With `CC(C)CC#Cc1cc(-c2nn(-c3nc(C(=O)O)cs3)c(CC3CC3)c2Cc2ccc(S(N)(=O)=O)c(F)c2)ccc1F`, the Ratio IC50 in assay [1] and in assay [2] was more than 2500 throughout.
For `NS(=O)(=O)c1ccc(Cc2c(-c3ccc(F)c(/C=C/C4CC4)c3)nn(-c3nc(C(=O)O)cs3)c2CC2CC2)cc1F`, the Ratio IC50 in assay [1] and in assay [2] was more than 2500 throughout.
`CC#Cc1cc(-c2nn(-c3nc(C(=O)O)cs3)c(CC3CC3)c2Cc2ccc(S(N)(=O)=O)c(F)c2)ccc1F`: the Ratio IC50 in assay [1] and in assay [2] was more than 2500 throughout.
Regarding `NS(=O)(=O)c1ccc(Cc2c(-c3cccc(C#Cc4ccc(C5CCC5)s4)c3)nn(-c3nc(C(=O)O)cs3)c2CC2CC2)cc1F`, the Ratio IC50 in assay [1] and in assay [2] was more than 2500 throughout.
Consider `Cc1ccc(C#Cc2cccc(-c3nn(-c4nc(C(=O)O)cs4)c(CCC4CC4)c3Cc3ccc(S(N)(=O)=O)c(F)c3)c2)s1`, for which the Ratio IC50 in assay [1] and in assay [2] was more than 2500 each time.
For the compound `CC(C)(C)/C=C/c1cc(-c2nn(-c3nc(C(=O)O)cs3)c(CC3CC3)c2Cc2ccc(S(N)(=O)=O)c(F)c2)ccc1F`, the Ratio IC50 in assay [1] and in assay [2] was more than 2500 throughout.
`NS(=O)(=O)c1ccc(Cc2c(-c3cccc(C#Cc4ccc(C(F)(F)F)s4)c3)nn(-c3nc(C(=O)O)cs3)c2CC2CC2)cc1F`: the Ratio IC50 in assay [1] and in assay [2] was more than 2500 in each case.
Regarding `CC(C)C#Cc1cc(-c2nn(-c3nc(C(=O)O)cs3)c(CC3CC3)c2Cc2ccc(S(N)(=O)=O)c(F)c2)ccc1F`, the Ratio IC50 in assay [1] and in assay [2] was more than 2500 each time.
Consider `NS(=O)(=O)c1ccc(Cc2c(-c3ccc(F)c(C#CCCO)c3)nn(-c3nc(C(=O)O)cs3)c2CC2CC2)cc1F`, for which the Ratio IC50 in assay [1] and in assay [2] was more than 2500 throughout.
For the compound `NS(=O)(=O)c1ccc(Cc2c(-c3cccc(-c4ccccc4)c3)nn(-c3nc(C(=O)O)cs3)c2C2(C(F)(F)F)CC2)cc1`, the Ratio IC50 in assay [1] and in assay [2] was more than 2500 each time.
For the compound `C/C=C/c1cc(-c2nn(-c3nc(C(=O)O)cs3)c(CC3CC3)c2Cc2ccc(S(N)(=O)=O)c(F)c2)ccc1F`, the Ratio IC50 in assay [1] and in assay [2] was more than 2500 in each case.
Take `Cc1ccc(C#Cc2cc(-c3nn(-c4nc(C(=O)O)cs4)c(CCC4CC4)c3Cc3ccc(S(N)(=O)=O)c(F)c3)ccc2F)s1`: the Ratio IC50 in assay [1] and in assay [2] was more than 2500 in each case.
For `NS(=O)(=O)c1ccc(Cc2c(-c3cccc(-c4ccccc4)c3)nn(-c3nc(C(=O)O)cs3)c2CCC2CC2)cc1`, the Ratio IC50 in assay [1] and in assay [2] was more than 2500 each time.
Take `NS(=O)(=O)c1ccc(Cc2c(-c3ccc(F)c(C#CCC4CC4)c3)nn(-c3nc(C(=O)O)cs3)c2CC2CC2)cc1F`: the Ratio IC50 in assay [1] and in assay [2] was more than 2500 in each case.
